{"source": "patent US8815249B2", "about": "(priority 1999, dated 2014)", "origin": "cited, not measured here", "conditions": "plasma; cited from earlier work"}
{"sequence": "AAGIGILTV [MART-1(27-35) peptide]", "values": [{"measurement": "calculated half-life", "result": 22, "unit": "s"}]}
